Source: publication PMC4188581, “Break CDK2/Cyclin E1 Interface Allosterically with Small Peptides” (PLoS ONE, 2014)

Assays:
Test in all cases: SPR
LAALS peptide = target: LAALS peptide
TAALS peptide = target: TAALS peptide
YAALQ peptide = target: YAALQ peptide
DAALT peptide = target: DAALT peptide

CDK2 (from UniProt P24941)
Kd (LAALS peptide): 8 µM | Kd (TAALS peptide): 1.4 µM | Kd (YAALQ peptide): 98 µM | Kd (DAALT peptide): 0.47 µM
